Test results from PMC4211885, “Characterization of a Prawn OA/TA Receptor in Xenopus Oocytes Suggests Functional Selectivity between Octopamine and Tyramine” (PLoS ONE, 2014).

By UniProt entry, the sequences of proteins in these tests, tags left out.
UniProt D9U2B9, entry or part of it: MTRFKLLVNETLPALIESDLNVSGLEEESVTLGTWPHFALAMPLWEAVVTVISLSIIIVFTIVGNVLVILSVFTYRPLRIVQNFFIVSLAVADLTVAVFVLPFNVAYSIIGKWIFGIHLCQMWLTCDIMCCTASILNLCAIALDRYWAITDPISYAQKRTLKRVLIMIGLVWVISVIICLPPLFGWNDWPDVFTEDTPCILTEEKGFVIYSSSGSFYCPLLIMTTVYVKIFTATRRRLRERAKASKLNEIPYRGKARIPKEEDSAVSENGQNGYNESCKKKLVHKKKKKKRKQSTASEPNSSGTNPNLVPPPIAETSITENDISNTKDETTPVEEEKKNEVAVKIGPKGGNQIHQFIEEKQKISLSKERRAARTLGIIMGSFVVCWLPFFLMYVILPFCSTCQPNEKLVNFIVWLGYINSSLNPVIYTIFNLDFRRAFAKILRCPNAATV

Biological target: OA/TAMac receptor (Macrobrachium rosenbergii, UniProt D9U2B9)
Test: Antagonist block of ID evoked by 50 µM octopamine in OA/TAMac-injected oocytes
Format: cell-based
Details: 100 µM antagonist with 50 µM octopamine
Description: Recordings were performed 1–3 days post-injection at room temperature (20–22°C). Currents were recorded under two-electrode voltage clamp using an Axoclamp 900a amplifier (Molecular Devices LLC, CA USA). A digidata 1440a analog to digital converter was used in conjunction with pCLAMP 10 software (Molecular Devices) for data acquisition and to generate voltage commands. For each step protocol or chemical application data were typically sampled at 5 KHz and filtered digitally at 1 KHz. For the duration of each experiment the current was also continuously sampled at 1 kHz using a separate minidigi 1A digitizer (Molecular Devices). Glass microelectrodes were pulled from filamented 1.2 mm thin wall borosilicate glass (World Precision Instruments, Sarasota, FL) using a Sutter Instruments P-97 puller. They were filled with 3 M KCl and had resistances of 0.8–2.0 MΩ. A silver chloride pellet immersed in 3 M KCl and connected to the bath via a 3% agar bridge made with 3 M KCl was used as the reference electrode.
In experiments where more than three drugs or concentrations were tested a precisely controlled 30 s perfusion-switch was used. Up to eight channels were connected to the bath via an 8-way manifold. There was an approximately 6–7 s delay for solutions to traverse the dead volume between the manifold and the bath.

CN1CCN2c3ccccc3Cc3ccccc3C2C1 (stereo not shown) [mianserin]
Block of octopamine-evoked ID at highest concentration: incomplete block
